Assay results from PubChem BioAssay (Tox21).
The entries are a selection whose mix differs from that of the whole data set. Inconclusive results are not listed. Calls of active or inactive are those of the source. Unless noted, the call rests on the fitted dose curve.

Protein sequences, listed by entry. Tags and fused reporters are not part of them.
UniProt P30968, whole entry: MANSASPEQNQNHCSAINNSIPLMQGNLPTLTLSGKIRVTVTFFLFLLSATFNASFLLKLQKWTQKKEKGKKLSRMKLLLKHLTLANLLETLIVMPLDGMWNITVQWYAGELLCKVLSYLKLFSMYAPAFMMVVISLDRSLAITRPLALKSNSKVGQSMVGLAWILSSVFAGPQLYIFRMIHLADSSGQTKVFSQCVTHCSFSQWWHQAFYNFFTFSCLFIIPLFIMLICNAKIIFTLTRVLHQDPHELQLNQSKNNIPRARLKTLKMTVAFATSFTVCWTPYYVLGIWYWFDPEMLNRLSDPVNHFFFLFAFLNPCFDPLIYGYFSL
UniProt Q969F8, whole entry: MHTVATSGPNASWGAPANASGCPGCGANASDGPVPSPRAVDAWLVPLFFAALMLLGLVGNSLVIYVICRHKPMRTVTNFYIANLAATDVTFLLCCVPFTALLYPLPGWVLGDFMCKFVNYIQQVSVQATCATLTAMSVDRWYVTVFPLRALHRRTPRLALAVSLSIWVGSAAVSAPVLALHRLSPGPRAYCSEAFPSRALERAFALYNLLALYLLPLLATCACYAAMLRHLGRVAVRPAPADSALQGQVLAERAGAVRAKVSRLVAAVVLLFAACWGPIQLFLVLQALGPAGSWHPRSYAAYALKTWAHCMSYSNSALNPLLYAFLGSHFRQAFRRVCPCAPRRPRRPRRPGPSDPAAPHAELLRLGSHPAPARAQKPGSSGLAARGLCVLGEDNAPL
UniProt P28223, whole entry: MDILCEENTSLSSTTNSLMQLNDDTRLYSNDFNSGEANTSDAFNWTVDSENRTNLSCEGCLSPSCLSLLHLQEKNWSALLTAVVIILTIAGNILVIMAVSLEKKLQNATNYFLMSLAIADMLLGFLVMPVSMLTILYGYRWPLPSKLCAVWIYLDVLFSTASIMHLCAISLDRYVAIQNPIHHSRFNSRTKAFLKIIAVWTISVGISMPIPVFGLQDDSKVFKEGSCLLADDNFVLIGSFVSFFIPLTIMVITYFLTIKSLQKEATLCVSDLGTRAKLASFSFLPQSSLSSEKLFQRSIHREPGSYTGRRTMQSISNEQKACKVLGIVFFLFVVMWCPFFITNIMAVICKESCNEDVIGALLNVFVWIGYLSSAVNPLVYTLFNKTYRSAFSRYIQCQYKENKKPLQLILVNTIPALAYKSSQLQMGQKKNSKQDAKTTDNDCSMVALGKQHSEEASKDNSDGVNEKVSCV
UniProt P11229, whole entry: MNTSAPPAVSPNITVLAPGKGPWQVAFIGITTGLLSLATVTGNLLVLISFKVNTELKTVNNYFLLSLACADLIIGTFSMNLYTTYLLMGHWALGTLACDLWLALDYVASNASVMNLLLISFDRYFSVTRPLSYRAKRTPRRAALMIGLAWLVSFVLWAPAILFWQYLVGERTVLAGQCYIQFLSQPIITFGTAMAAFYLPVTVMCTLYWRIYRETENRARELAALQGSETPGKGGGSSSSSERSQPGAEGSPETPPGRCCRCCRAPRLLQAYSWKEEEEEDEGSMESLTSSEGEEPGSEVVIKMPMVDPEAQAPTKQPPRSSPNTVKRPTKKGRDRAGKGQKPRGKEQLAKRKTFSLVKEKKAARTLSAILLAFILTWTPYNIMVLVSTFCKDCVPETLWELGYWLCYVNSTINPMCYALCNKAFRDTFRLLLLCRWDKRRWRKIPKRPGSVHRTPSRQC
UniProt P07550, whole entry: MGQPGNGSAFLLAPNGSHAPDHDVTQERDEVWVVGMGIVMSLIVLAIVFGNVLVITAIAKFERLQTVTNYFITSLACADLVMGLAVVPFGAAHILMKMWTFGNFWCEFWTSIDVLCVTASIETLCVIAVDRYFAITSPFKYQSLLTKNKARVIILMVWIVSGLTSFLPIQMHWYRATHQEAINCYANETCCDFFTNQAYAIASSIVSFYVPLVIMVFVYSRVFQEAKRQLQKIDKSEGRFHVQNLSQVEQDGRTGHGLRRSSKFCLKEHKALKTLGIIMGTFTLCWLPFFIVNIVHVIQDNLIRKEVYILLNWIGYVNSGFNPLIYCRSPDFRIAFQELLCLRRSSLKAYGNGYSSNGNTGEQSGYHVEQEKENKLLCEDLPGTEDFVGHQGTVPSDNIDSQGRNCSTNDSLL
UniProt P14416, whole entry: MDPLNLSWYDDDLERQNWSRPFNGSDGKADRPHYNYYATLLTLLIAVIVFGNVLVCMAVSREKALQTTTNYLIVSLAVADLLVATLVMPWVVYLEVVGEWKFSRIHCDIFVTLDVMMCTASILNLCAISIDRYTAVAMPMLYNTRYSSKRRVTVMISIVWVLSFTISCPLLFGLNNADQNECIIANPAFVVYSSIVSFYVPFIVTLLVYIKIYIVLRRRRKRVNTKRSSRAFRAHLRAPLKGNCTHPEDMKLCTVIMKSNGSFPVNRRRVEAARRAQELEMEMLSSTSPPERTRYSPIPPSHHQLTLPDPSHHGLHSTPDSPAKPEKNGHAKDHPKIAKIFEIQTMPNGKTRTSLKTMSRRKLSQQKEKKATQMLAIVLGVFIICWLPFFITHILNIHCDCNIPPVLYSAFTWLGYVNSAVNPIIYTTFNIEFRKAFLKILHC

Legend:
[1] = Nuclear factor erythroid 2-related factor 2/antioxidant responsive element (Nrf2/ARE) small molecule agonists: qHTS cell viability counter screen in human keratinocytes (AID 1919968; active means well fitted curve in the direction sought with a large enough effect in the repeat runs; an effect the other way counts as inactive or inconclusive; further: nearly all actives have a fitted effect of over 55% in size); conditions: KeratinoSens HaCaT ARE cells viability, CellTiter-Fluor, 24 h; at 92.4 µM (top of the series) unless noted
Summary of the method: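 KeratinoSens HaCaT cells, 1,500/well, preincubated 5 h, then exposed to compounds in DMSO for 23 h at 37 C/5% CO2. Viability read as CellTiter-Fluor fluorescence after 1 h, in the same wells as the ARE-luciferase read.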

[2] = Nuclear factor erythroid 2-related factor 2/antioxidant responsive element (Nrf2/ARE) small molecule agonists: luciferase reporter gene qHTS assay in human keratinocytes (AID 1919969); conditions: KeratinoSens HaCaT ARE-luciferase, luminescence, 24 h; at 92.4 µM (top of the series) unless noted; further: nearly all actives have a fitted effect of over 35% in size
Source text: National Center for Advancing Translational Sciences [NCATS]
Division of Preclinical Innovation [DPI]
U.S. Environmental Protection Agency [EPA]
National Institutes of Environmental Health Sciences [NIEHS]
National Toxicology Program [NTP]
U.S. Food and Drug Administration [FDA]
Oxidative stress has been implicated in the pathogenesis of a variety of diseases ranging from cancer to neurodegeneration. The antioxidant response element (ARE) signaling pathway plays an important role in the amelioration of oxidative stress. The KeratinoSens (Givaudan, Switzerland) is an in vitro test method which quantifies luciferase induction as a measure of activation of Keap1-Nrf2-antioxidationt/electrophile response element (ARE) dependant pathway in HaCaT human keratinocytes stably transfected with a selectable plasmid. The KeratinoSens assay is a cell-based assay with a reporter cell line to detect potential skin sensitizers by their ability to induce the Nrf2/ARE-response. The activation of the report gene under culture conditions can be detected by ONE-Glo Luciferase Assay System (Promega, Madison, WI). This cell line has been used to screen the Tox21 10K compound library to identify agonists that induce oxidative stress. The cytotoxicity of the Tox21 compound library against the KS-ARE cell line was tested in parallel by measuring the cell viability using CellTiter- Fluor assay system (Promega, Madison, WI) in the same wells.
HaCaT derived cell line KeratinoSens were dispensed at 1,500 cells/5uL/well in 1536-well white wall/solid bottom plates using a Multidrop Combi (ThermoFisher Scientific, Waltham, MA) dispenser. After the assay plates were incubated at 37 C/5% CO2 for 5 h, 23 nL of compounds dissolved in DMSO, positive controls or DMSO only was transferred to the assay plate by a pintool workstation (Kalypsys, San Diego, CA). The plates were incubated at 37 C/5% CO2 for 23 h, followed by addition of 1uL/well of CellTiter-Fluor reagent into the assay plates using a Flying Reagent Dispenser (Aurora Discovery, San Diego, CA) for cell viability readout that measures cytotoxicity. After 1 h incubation at 37 C/5% CO2 the fluorescence intensity was measured using a ViewLux (PerkinElmer, Shelton, CT) plate reader. Then 4uL/well of One-Glo were added using a Flying Reagent Dispenser. After the plates were incubated at room temperature for 30 min, the luminescence intensity in the assay plates was measured using ViewLux plate reader.

[3] = target: Gonadotropin-releasing hormone receptor (Homo sapiens) (UniProt P30968); assay: Human gonadotropin-releasing hormone receptor (GnRHR) small molecule agonists, calcium flux assay in GnRHR-HEK293 cells (AID 1920063); conditions: calcium flux fluorescence, agonist mode, stronger effect = higher value; at 57.6 µM (top of the series) unless noted; further: nearly all actives have a fitted effect of over 35% in size
Summary of the method: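 HEK293 cells stably expressing human GnRHR were dye-loaded for 1 h at 37 C. Compound was added in agonist mode and fluorescence (Ex/Em 480/540) recorded kinetically for 3 min. Fifteen concentrations, triplicates.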

[4] = target: KiSS-1 receptor (Homo sapiens) (UniProt Q969F8); assay: Human kisspeptin (KISS1R) small molecule agonists, calcium flux assay in KISS1R-HEK293 cells (AID 1920064; active means well fitted curve in the direction sought with a large enough effect in the repeat runs; an effect the other way counts as inactive or inconclusive); conditions: KISS1R-HEK293, calcium flux fluorescence, agonist; at 76.8 µM (top of the series) unless noted
Summary of the method: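 HEK293 cells stably expressing human KISS1R were loaded with calcium dye for 1 h at 37 C, then given compound; fluorescence (Ex/Em 480/540) was read kinetically for 3 min. Fifteen concentrations, triplicate.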

[5] = G protein-coupled receptor (GPCR) small molecule agonists, calcium flux assay: HEK293 wild type cell line counter screen (AID 1920065); conditions: HEK293 WT calcium flux, fluorescence, agonist mode; at 57.6 µM (top of the series) unless noted
Summary of the method: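 Wild-type HEK293 cells plated 18 h, loaded with calcium dye 1 h at 37 C, then compounds added in agonist mode (ATP as positive control). Kinetic fluorescence Ex/Em 480/540 recorded 3 min at 1 sec intervals; 15 concentrations, triplicate.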

[6] = p53 small molecule agonists, cell-based qHTS assay with human liver microsomes (AID 1963577); conditions: HCT-116 p53RE-bla with human liver microsomes, ratio, 16 h; at 66 µM (top of the series) unless noted;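 further: p53 response element beta-lactamase reporter cells with liver microsomes plus NADPH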
Summary of the method: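 In this qHTS, p53 response-element beta-lactamase cells receive test compound together with a microsome/NADPH activating system (0.5 mg/mL final each) and are incubated 16 h at 37 C before LiveBLAzer fluorescence detection.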

[7] = p53 small molecule agonists, cell-based qHTS assay with rat liver microsomes (AID 1963578); conditions: HCT-116 p53RE-bla, beta-lactamase ratio, 16 h; at 66 µM (top of the series) unless noted
Summary of the method: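 Agonist mode in p53RE-bla reporter cells, with compounds co-incubated 16 h at 37 C alongside 0.5 mg/mL rat liver microsomes and 0.5 mg/mL NADPH (final), followed by a 2 h LiveBLAzer detection step.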

[8] = p53 small molecule agonists, cell-based qHTS assay with human liver microsomes: qHTS cell viability counter screen (AID 1963579); conditions: p53RE-bla HCT-116 viability, ATP luminescence, 16 h, HLM; at 66 µM (top of the series) unless noted; further: nearly all actives have a fitted effect of over 45% in size
Summary of the method: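 Metabolically activated exposure: compounds, human liver microsomes and NADPH (0.5 mg/mL final apiece) were added to p53RE-bla cells seeded 5 h earlier, left 16 h at 37 C, and then assessed for viability by CellTiter-Glo luminescence.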

[9] = p53 small molecule agonists, cell-based qHTS assay with rat liver microsomes: qHTS cell viability counter screen (AID 1963580); conditions: p53RE-bla HCT-116 + rat microsomes, ATP viability, 16 h; at 66 µM (top of the series) unless noted; further: nearly all actives have a fitted effect of over 45% in size
Summary of the method: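 Intracellular ATP, by CellTiter-Glo luminescence, defines viability. HCT-116 p53RE-bla cells, 4,000 per well, were compound-treated in the presence of rat liver microsomes and NADPH for 16 h at 37 C.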

[10] = p53 small molecule agonists, cell-based qHTS assay: qHTS cell viability counter screen (AID 1963581); conditions: p53RE-bla HCT-116 viability, ATP luminescence, 16 h; at 66 µM (top of the series) unless noted; further: nearly all actives have a fitted effect of over 45% in size
Summary of the method: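 p53RE-bla HCT-116 cells, compounds added 5 h after plating and incubated 16 h at 37 C. Cytotoxicity measured in the same wells as intracellular ATP by CellTiter-Glo luminescence after 30 min at room temperature.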

[11] = p53 small molecule agonists, cell-based qHTS assay (AID 1963582; active means well fitted activation curve with a large enough effect in the signal ratio in the repeat runs, not every such curve was filed as active; the % refers to the signal ratio); conditions: HCT-116 p53RE-bla reporter, beta-lactamase FRET ratio, 16 h; at 66 µM (top of the series) unless noted
Summary of the method: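 p53RE-bla reporter cells, compounds added in DMSO after 5 h plating, incubated 16 h at 37 C. Beta-lactamase read via 2 h room-temperature LiveBLAzer B/G FRET substrate, fluorescence intensity.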

[12] = target: 5-hydroxytryptamine receptor 2A (Homo sapiens) (UniProt P28223); assay: 5-hydroxytryptamine receptor 2A (HTR2A) small molecule antagonists, cell-based qHTS assay (AID 1963586); conditions: HTR2A-CHO cells, DOI-induced calcium flux, fluorescence; at 61.5 µM (top of the series) unless noted; further: nearly all actives have a fitted effect of over 45% in size
Summary of the method: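 Antagonist-mode intracellular calcium assay: DOI (4 nM) added after 5 min compound pre-incubation at room temperature to dye-loaded HTR2A-CHO cells. Fluorescence followed for 3 min, sampled every second.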

[13] = target: 5-hydroxytryptamine receptor 2A (Homo sapiens) (UniProt P28223); assay: 5-hydroxytryptamine receptor 2A (HTR2A) small molecule agonists, cell-based qHTS assay (AID 1963587); conditions: HTR2A-CHO cells, calcium flux fluorescence, agonist mode; at 76.8 µM (top of the series) unless noted; further: nearly all actives have a fitted effect of over 30% in size
Summary of the method: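 Kinetic calcium-flux fluorescence (2 min, 1 sec intervals) after compound addition in agonist mode. HTR2A-CHO cells were cultured 18 h, then dye-loaded 1 h at 37 C.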

[14] = target: Muscarinic acetylcholine receptor M1 (Homo sapiens) (UniProt P11229); assay: Cholinergic receptor muscarinic 1 (CHRM1) small molecule antagonists, cell-based qHTS assay (AID 1963588); conditions: CHRM1-CHO antagonist mode, calcium flux fluorescence; at 61.5 µM (top of the series) unless noted; further: nearly all actives have a fitted effect of over 40% in size
Summary of the method: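 CHRM1-CHO calcium-flux assay, antagonist mode. Cells were seeded 18 h, dye-loaded 1 h at 37 C and given compound for 5 min at RT, then acetylcholine was added at 50nM. FDSS fluorescence was read 3 min; 15 concentrations, three runs.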

[15] = target: Muscarinic acetylcholine receptor M1 (Homo sapiens) (UniProt P11229); assay: Cholinergic receptor muscarinic 1 (CHRM1) small molecule agonists, cell-based qHTS assay (AID 1963589); conditions: CHRM1-CHO cells, agonist mode, calcium flux fluorescence; at 76.8 µM (top of the series) unless noted; further: nearly all actives have a fitted effect of over 35% in size
Summary of the method: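 CHO cells stably expressing human CHRM1 were loaded with calcium dye for 1 h at 37 C, then compound was added in agonist mode. Intracellular calcium fluorescence was followed kinetically at 1 s intervals. Fifteen concentrations were tested in three independent runs.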

[16] = cAMP Responsive Elements (CRE) small molecule agonists, cell-based qHTS assay (AID 1963590); conditions: CRE-bla HEK293T, beta-lactamase FRET ratio, 3 h; at 92.4 µM (top of the series) unless noted
Summary of the method: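 CRE-bla HEK 293T cells, 2,000/well in DMEM with 10% dialyzed FBS and 25 mM HEPES, pre-incubated 18 h at 37 C, then exposed to compound 3 h at 37 C. Beta-lactamase reporter read with LiveBLAzer B/G FRET substrate after 2 h at room temperature.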

[17] = cAMP Responsive Elements (CRE) small molecule antagonists, cell-based qHTS assay (AID 1963591; active means well fitted inhibition curve with a large enough effect in the signal ratio in the repeat runs, not every such curve was filed as active; the % refers to the signal ratio); conditions: CRE-bla HEK293T, beta-lactamase FRET ratio; at 92.4 µM (top of the series) unless noted
Summary of the method: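 CRE-bla HEK293T cells plated 18 h, then given compound plus NKH477 at 0.25 uM final for 3 h at 37C. Beta-lactamase reporter read with LiveBLAzer B/G FRET substrate after 2 h at room temperature.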

[18] = target: Beta-2 adrenergic receptor (Homo sapiens) (UniProt P07550); assay: Adrenergic beta2 receptor (ADRB2) small molecule antagonists, cell-based qHTS assay (AID 1963592); conditions: CHO-ADRB2 cells, isoproterenol-stimulated cAMP HTRF ratio, 0.5 h; at 92.4 µM (top of the series) unless noted; further: nearly all actives have a fitted effect of over 50% in size
Summary of the method: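 Cells (CHO, stable ADRB2 overexpression) incubated 18-20hr at 37C; compounds added from DMSO; agonist mix (1nM isoproterenol, 100uM IBMX, 25uM Ro-20-1724) added; 0.5hr RT; d2-cAMP and anti-cAMP-cryptate added; 1hr RT; 665/615 nm read.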

[19] = target: Beta-2 adrenergic receptor (Homo sapiens) (UniProt P07550); assay: Adrenergic beta2 receptor (ADRB2) small molecule agonists, cell-based qHTS assay (AID 1963593); conditions: CHO-ADRB2 cells, cAMP HTRF, 30 min; at 92.4 µM (top of the series) unless noted;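 further: CHO cells stably overexpressing human ADRB2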
Summary of the method: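 CHO cells stably over-expressing ADRB2 were plated overnight at 37C, then dosed with compounds plus a stimulation mix containing 100uM IBMX and 25uM Ro-20-1724 for 0.5hr at room temperature. cAMP was measured by HTRF competition, 1hr.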

[20] = target: D(2) dopamine receptor (Homo sapiens) (UniProt P14416); assay: Dopamine D2 receptor (DRD2) small molecule agonists, cell-based qHTS assay (AID 1963594); conditions: HEK293-DRD2 cAMP HTRF, agonist mode, 30 min; at 92.4 µM (top of the series) unless noted; further: nearly all actives have a fitted effect of over 35% in size
Summary of the method: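 cAMP accumulation in DRD2-HEK293 cells measured by HTRF after 1 h detection; compounds added 10 min before NKH477 (200nM […]) forskolin-analogue stimulation, 30 min at room temperature, with Ro20-1724 present at 0.1 mM final.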

[21] = target: D(2) dopamine receptor (Homo sapiens) (UniProt P14416); assay: Dopamine D2 receptor (DRD2) small molecule antagonists, cell-based qHTS assay (AID 1963595; active means well fitted inhibition curve with a large enough effect in the signal ratio in the repeat runs, with a control signal flat; the % refers to the signal ratio); conditions: HEK293-DRD2 cAMP HTRF antagonist mode; at 92.4 µM (top of the series) unless noted
Summary of the method: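 Readout: HTRF cAMP, cAMP-d2 competing with cellular cAMP for anti-cAMP cryptate, read after 1 h. Cells: DRD2-HEK293. Conditions: 0.1 mM Ro20-1724, 12 nM quinpirole, 200 nM NKH477, 30 min RT.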
On the % scale 0 is the no-effect control and ±100 the full control effect.

CCOC(=O)N1CCC(=O)CC1
inactive: activity change, negative = cytotoxicity [1] -13.1% [at 42.5 µM] | activity, positive = activation [2] 3.5% [at 42.5 µM] | activity change [3] -0.535% [at 26.4 µM] | activation [4] -0.853% [at 35.3 µM] | activation [5] 0.925% [at 26.5 µM] | activation [6] 1.18% [at 30.3 µM] | activation [7] 0.727% [at 30.3 µM] | activity change, negative = cytotoxicity [8] -8.76% [at 30.3 µM] | activity change, negative = cytotoxicity [9] 0.3% [at 30.3 µM] | activity change, negative = cytotoxicity [10] 11.5% [at 30.3 µM] | activation [11] 0.484% [at 30.3 µM] | activity, negative = inhibition [12] 20.9% [at 28.5 µM] | activation [13] 0.683% [at 35.6 µM] | activity, negative = inhibition [14] 15.8% [at 28.3 µM] | activation [15] -0.117% [at 35.3 µM] | activation [16] -1.81% [at 42.5 µM] | activity change, negative = inhibition [17] -0.755% [at 42.4 µM] | activity change, negative = inhibition [18] 4.3% [at 42.5 µM] | activation [19] 26.1% [at 42.5 µM] | activation [20] -12.7% [at 42.5 µM] | activity change, negative = inhibition [21] 0.287% [at 42.5 µM]
